Sequences of proteins named here, by UniProt entry; tags and fusion partners are left off. A change or cut given only in a name is not applied to a line headed by its entry.
UniProt P22303: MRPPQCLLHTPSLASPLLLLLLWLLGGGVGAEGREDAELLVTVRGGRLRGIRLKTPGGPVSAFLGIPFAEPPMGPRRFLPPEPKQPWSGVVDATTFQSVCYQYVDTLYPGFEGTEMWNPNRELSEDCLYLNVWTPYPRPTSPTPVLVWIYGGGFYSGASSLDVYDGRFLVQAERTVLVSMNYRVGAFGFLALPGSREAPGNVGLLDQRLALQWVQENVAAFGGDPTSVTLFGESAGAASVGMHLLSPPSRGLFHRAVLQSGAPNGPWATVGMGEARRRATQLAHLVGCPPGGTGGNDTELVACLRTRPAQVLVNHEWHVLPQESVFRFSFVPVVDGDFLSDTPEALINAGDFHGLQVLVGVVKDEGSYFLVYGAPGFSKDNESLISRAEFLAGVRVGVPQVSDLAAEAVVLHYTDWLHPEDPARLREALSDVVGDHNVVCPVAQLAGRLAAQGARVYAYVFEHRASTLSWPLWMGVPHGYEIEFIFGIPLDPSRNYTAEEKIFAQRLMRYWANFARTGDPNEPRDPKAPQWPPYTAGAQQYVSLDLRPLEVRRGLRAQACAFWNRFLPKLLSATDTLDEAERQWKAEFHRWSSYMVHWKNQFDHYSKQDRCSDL

According to ChEMBL document CHEMBL1121722, “Nonquaternary cholinesterase reactivators. Dialkylaminoalkyl thioesters of alpha-ketothiohydroximic acids as reactivators of diisopropyl phosphorofluoridate inhibited acetylcholinesterase” (1981):

Tests used:
[1] = target: Acetylcholinesterase (Homo sapiens) (UniProt P22303); test: Percent reactivation of Acetylcholinesterase after 2 hr incubation
[2] = target: Acetylcholinesterase (Homo sapiens) (UniProt P22303); test: Percent reactivation of Acetylcholinesterase after 4 hr incubation
[3] = target: Acetylcholinesterase (Homo sapiens) (UniProt P22303); test: Percent reactivation of Acetylcholinesterase after 24 hr incubation
[4] = target: Acetylcholinesterase (Homo sapiens) (UniProt P22303); test: Percent reactivation of acetylcholinesterase after 2 hr incubation
[5] = target: Acetylcholinesterase (Homo sapiens) (UniProt P22303); test: Percent reactivation of acetylcholinesterase after 4 hr incubation
[6] = target: Acetylcholinesterase (Homo sapiens) (UniProt P22303); test: Percent reactivation of acetylcholinesterase after 24 hr incubation
[7] = target: Acetylcholinesterase (Homo sapiens) (UniProt P22303); test: Maximum attainable percent reactivation obtained for a range of concentrations of 10M*10e4 HOX and 2.85M*10e4OX
[8] = target: Acetylcholinesterase (Homo sapiens) (UniProt P22303); test: Maximum attainable percent reactivation obtained for a range of concentrations of 2M*10e4 HOX and 0.569M*10e4OX
[9] = target: Acetylcholinesterase (Homo sapiens) (UniProt P22303); test: Maximum attainable percent reactivation obtained for a range of concentrations of 6M*10e4 HOX and 1.71 M*10e4OX
[10] = target: Acetylcholinesterase (Homo sapiens) (UniProt P22303); test: Pseudo first order observed rate constants for reactivation of acetylcholinesterase at 2M*10e4 HOX and 1M*10e4OX; Kobs (min-1 X 10e3)
[11] = target: Acetylcholinesterase (Homo sapiens) (UniProt P22303); test: Pseudo first order observed rate constants for reactivation of acetylcholinesterase at 10M*10e4 HOX and 2.85M*10e4OX; Kobs (min-1 X 10e3)
[12] = target: Acetylcholinesterase (Homo sapiens) (UniProt P22303); test: Pseudo first order observed rate constants for reactivation of acetylcholinesterase at 6M*10e4 HOX and 1.71 M*10e4OX; Kobs (min-1 X 10e3)
[13] = target: Acetylcholinesterase (Homo sapiens) (UniProt P22303); test: Ratio of ka to that of kr for reactivation of acetylcholinesterase at concentration of 2M*10e4 [HOX] and 17.6Me-1*10e-3 [OX]e-1 was determined
[14] = target: Acetylcholinesterase (Homo sapiens) (UniProt P22303); test: Kr for reactivation of acetylcholinesterase at concentration of 2M*10e4 [HOX] and 17.6Me-1*10e-3 [OX]e-1 was determined; Expressed as kr, M*10e4
[15] = target: Acetylcholinesterase (Homo sapiens) (UniProt P22303); test: kr for reactivation of acetylcholinesterase at concentration of 2M*10e4 [HOX] and 17.6Me-1*10e-3 [OX]e-1 was determined; Expressed as kr, M*10e3
[16] = target: Acetylcholinesterase (Homo sapiens) (UniProt P22303); test: kb for reactivation of acetylcholinesterase at concentration of 2M*10e4 [HOX] and 17.6Me-1*10e-3 [OX]e-1 was determined; Expressed as kb, 1/M 1/min
[17] = target: Acetylcholinesterase (Homo sapiens) (UniProt P22303); test: 1/kmax for reactivation of acetylcholinesterase at concentration of 2M*10e4 [HOX] and 17.6Me-1*10e-3 [OX]e-1 was determined; Expressed as 1/kmax, min
[18] = target: Acetylcholinesterase (Homo sapiens) (UniProt P22303); test: ka for reactivation of acetylcholinesterase at concentration of 2M*10e4 [HOX] and 17.6Me-1*10e-3 [OX]e-1 was determined; Expressed as ka, 1/min 1*10e3
[19] = target: Acetylcholinesterase (Homo sapiens) (UniProt P22303); test: keff for reactivation of acetylcholinesterase at concentration of 2M*10e4 [HOX] and 17.6Me-1*10e-3 [OX]e-1 was determined; Expressed as keff, 1/M 1/min
[20] = target: Acetylcholinesterase (Homo sapiens) (UniProt P22303); test: keff (rel) for reactivation of acetylcholinesterase at concentration of 2M*10e4 [HOX] and 17.6Me-1*10e-3 [OX]e-1 was determined; Expressed as keff (rel)
[21] = target: Acetylcholinesterase (Homo sapiens) (UniProt P22303); test: Kinetic constant was determined for reactivation of acetylcholinesterase at concentration of 6M*10e4 [HOX] and 5.86Me-1*10e-3 [OX]e-1; (kobsd-ka)e-1, min
[22] = target: Acetylcholinesterase (Homo sapiens) (UniProt P22303); test: Kinetic constant was determined for reactivation of acetylcholinesterase at concentration of 2M*10e4 [HOX] and 17.6Me-1*10e-3 [OX]e-1; (kobsd-ka)e-1, min
[23] = target: Acetylcholinesterase (Homo sapiens) (UniProt P22303); test: Kinetic constant was determined for reactivation of acetylcholinesterase at concentration of 10M*10e4 [HOX] and 8.51Me-1*10e-3 [OX]e-1; (kobsd-ka)e-1, min
[24] = target: Acetylcholinesterase (Homo sapiens) (UniProt P22303); test: Ratio of Kr/kmax for reactivation of acetylcholinesterase at concentration of 2M*10e4 [HOX] and 17.6Me-1*10e-3 [OX]e-1 was determined; Expressed as Kr/kmax, M-min*10e2
[25] = target: Acetylcholinesterase (Homo sapiens) (UniProt P22303); test: Ratio of kaKr to that of kr for reactivation of acetylcholinesterase at concentration of 2M*10e4 [HOX] and 17.6Me-1*10e-3 [OX]e-1 was determined; Expressed as kaKr/kr; M*10e4
[26] = target: Acetylcholinesterase (Homo sapiens) (UniProt P22303); test: Ratio of [EOP'']infinity to that of [EOH]infinity for reactivation of acetylcholinesterase at concentration of 2M*10e4 [HOX] and 17.6Me-1*10e-3 [OX]e-1; Expressed as [EOP'']infinity/[EOH]infinity
[27] = target: Acetylcholinesterase (Homo sapiens) (UniProt P22303); test: Ratio of [EOP'']infinity to that of [EOH]infinity for reactivation of acetylcholinesterase at concentration of 6M*10e4 [HOX] and 5.86Me-1*10e-3 [OX]e-1; Expressed as [EOP'']infinity/[EOH]infinity
[28] = target: Acetylcholinesterase (Homo sapiens) (UniProt P22303); test: Ratio of [EOP'']infinity to that of [EOH]infinity for reactivation of acetylcholinesterase at concentration of 10M*10e4 [HOX] and 8.51Me-1*10e-3 [OX]e-1; Expressed as [EOP'']infinity/[EOH]infinity

CCN(CC)CCS/C(=N\O)C(=O)c1ccc([N+](=O)[O-])cc1
Reactivation [1]: 18%
Reactivation [2]: 20%
Reactivation [3]: 25%

COc1ccc(C(=O)/C(=N/O)SCCN(C)C)cc1
Reactivation [4]: 56%
Reactivation [5]: 65%
Reactivation [6]: 71%
Reactivation [7]: 4.15%
Reactivation [8]: 3.15%
Reactivation [9]: 3.83%
k obs [10]: 125 s⁻¹
k obs [11]: 172 s⁻¹
k obs [12]: 136 s⁻¹
ka/kr [13]: -0.018
Kr [14]: 2700 M
kr [15]: 10000 min⁻¹
kb [16]: 6.33 M⁻¹ s⁻¹
1/kmax [17]: 117 min
ka [18]: 190 min⁻¹
k eff [19]: 1.8 M⁻¹ s⁻¹
k eff (rel) [20]: 9.8
1/kobsd-ka [21]: 151 min
1/kobsd-ka [22]: 170 min
1/kobsd-ka [23]: 115 min
Kr/kmax [24]: 32 M-min
kaKr/kr [25]: 19000 M
[EOP']infinity/[EOH]infinity [26]: 3.29
[EOP']infinity/[EOH]infinity [27]: 1.17
[EOP']infinity/[EOH]infinity [28]: 0.576
